Source: PubChem BioAssay AID504692 (The Scripps Research Institute Molecular Screening Center, 2011)
The list shows a part of the results, in another mix than the full data. Calls of active or inactive are those of the source. Rule as the data show it: active = activation mostly above about 9.5% (no sharp cut-off); inactive = mostly below about 7.6%.

Protein sequences, listed by entry. Tags and fused reporters are not part of them.
UniProt P47898, whole entry, looked up: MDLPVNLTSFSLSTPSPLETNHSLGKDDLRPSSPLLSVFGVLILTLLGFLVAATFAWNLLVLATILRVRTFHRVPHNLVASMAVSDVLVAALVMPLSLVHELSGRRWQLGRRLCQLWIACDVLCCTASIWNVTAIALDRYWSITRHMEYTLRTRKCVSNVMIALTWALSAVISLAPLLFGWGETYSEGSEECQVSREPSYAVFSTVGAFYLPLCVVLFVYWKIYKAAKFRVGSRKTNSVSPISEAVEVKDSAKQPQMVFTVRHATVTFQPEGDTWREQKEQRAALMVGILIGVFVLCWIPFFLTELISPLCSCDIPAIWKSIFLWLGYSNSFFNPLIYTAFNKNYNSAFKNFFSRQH

Target: 5-hydroxytryptamine receptor 5A (Homo sapiens) (UniProt P47898)
Test: HTR5A agonists in luminescence cell assay, primary screen, counter-screen for OPRM1-OPRD1 heterodimer agonist project, full-deck HTS (AID 504692);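 also: 0% = cells with vehicle only and 100% = reference agonist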
Conditions: cell-based, at 9.3 µM, stronger effect = higher value

| Compound | activation |
| --- | --- |
| CS(=O)(=O)N1CCn2c1nc1ccccc12 | inactive: 0.17% |
| Cc1nc2ccccc2n1CC(=O)N/N=C\C=C\c1ccccc1 | inactive: -1.84% |
| COc1cccc(NC(=S)N2CCn3c(nc4ccccc43)C2)c1 | inactive: 4.65% |
| COC(=O)[C@H](Cc1ccccc1)NC(=O)Cn1cnc2c(OCc3ccccc3)ncnc21 | inactive: 0.31% |
| N=c1n(CCN2CCCCC2)c2ccccc2n1CC(O)c1cccc(Br)c1 (stereo not given) | inactive: -9.77% |
| Cc1ccc(OCC(O)Cn2c(=N)n(CCN3CCCCC3)c3ccccc32)cc1 (stereo not given) | inactive: 5.12% |
| CC(C)C[C@H](NC(=O)N1CCn2c1nc1ccccc12)C(=O)NCc1ccc2c(c1)OCO2 | inactive: -0.79% |
| Cn1c(=O)n(Cc2ccccc2F)c(=O)c2c1nc1n2CCN1Cc1ccco1 | inactive: -0.45% |
| CCc1cccc(NC(=O)Cn2c3[n+](c4ccc(C(F)(F)F)cc42)CCCCC3)c1 | inactive: 1.99% |
| NC(=O)CC(NC(=O)Cc1ccc(Cl)cc1)c1ccc(NC2CCN(Cc3ccccc3)CC2)c([N+](=O)[O-])c1 (stereo not given) | inactive: -2.09% |
| CC1CN(C(=O)Cn2c(C(F)(F)F)nc3ccccc32)CC(C)O1 (stereo not given) | inactive: -3.82% |
| O=C(CCCCCNC(=O)N1CCn2c1nc1ccccc12)N[C@H](Cc1ccccc1)C(=O)O | inactive: 3.77% |
| CC(CNC(=O)Cn1cnc2c(OCc3ccccc3)ncnc21)c1ccccc1 (stereo not given) | inactive: 2.19% |
| c1coc(CNc2nc3ccccc3n2CCN2CCOCC2)c1 | inactive: -2.21% |
| Brc1ccc(/C=N/c2nc3ccccc3n2CCN2CCOCC2)cc1 | inactive: -0.29% |
| CC(C)CN(C(=O)Cn1c(C(F)(F)F)nc2ccccc21)c1c(N)n(Cc2ccccc2)c(=O)[nH]c1=O | inactive: 2.71% |
| COCCN(C(=O)Cn1c(C(F)(F)F)nc2ccccc21)c1c(N)n(Cc2ccccc2)c(=O)[nH]c1=O | inactive: -3.4% |
| O=C(Cn1cnc2c(OCc3ccccc3)ncnc21)NCCc1c[nH]c2ccccc12 | inactive: 2.2% |
| CN(C)CCCNC(=S)N1CCn2c(nc3ccccc32)C1 | inactive: 10.4% |
| Fc1ccc(Cn2nnnc2CN2CCC(n3nnc4cc(C(F)(F)F)ccc43)CC2)cc1 | inactive: -1.58% |
| CC1(CBr)Cn2c(nc3ccccc3c2=O)S1 (stereo not given) | inactive: -2.19% |
| O=C(Nc1nc2ccccc2n1CCN1CCOCC1)c1ccc(COc2ccccc2Br)o1 | inactive: -0.18% |
| CCC(=O)Nc1ccc2c(c1)nc1n2CCN(C2CCCCC2)C1 | inactive: -2.91% |

| Compound | activation |
| --- | --- |
| CN(C(=O)Cc1ccc(Cl)c(Cl)c1)[C@@H]1CCCC[C@H]1N1CCCC1 | inactive: 1.73% |
| COc1ccc(CCNC(=O)CCCCCNC(=O)N2CCn3c2nc2ccccc23)cc1OC | inactive: -2.93% |
| CC(C)/C=N\N=C(\N)N[N+](=O)[O-] | inactive: -8.02% |
| O=C(Cn1c(COc2ccc(Cl)cc2)nc2ccccc21)NCC(F)(F)F | inactive: -7.12% |
| CCN(CC)CCn1c(NC(=O)c2ccc(C)cc2)nc2ccccc21 | inactive: -4.84% |
| C[C@H](O)[C@@H]1C(=O)N2CCc3ccc(-c4cccc(F)c4)cc3[C@@H]2C[C@@H]1N(C)C(=O)C(C)(C)C | inactive: -3.52% |
| O=C(Cn1c(CO)nc2ccccc21)NCc1ccc2c(c1)OCO2 | inactive: 2.65% |
| COC(=O)[C@H](CCSC)NC(=O)Cn1cnc2c(OCc3ccccc3)ncnc21 | inactive: -0.42% |
| Cc1cccc(N2CCN(C(=O)Cn3cnc4c3c(=O)n(C)c(=O)n4C)CC2)c1C | inactive: 0.26% |
| CCOC(=O)c1ccc(NC(=O)Cn2cnc3cc(C)c(C)cc32)cc1 | inactive: 4.83% |
| CCOc1ccc(C(=O)N2CCn3c2nc2ccccc23)cc1 | inactive: 2.15% |
| Cc1ccc(-c2nc(N(C)C3CCN(C)CC3)c3ccccc3n2)cc1 | inactive: 0.35% |
| CCOC(=O)Cc1csc(NC(=O)Cn2cnc3c2c(=O)n(C)c(=O)n3C)n1 | inactive: -0.9% |
| CNC(=O)Cn1c(=O)n(C)c2ccccc21 | inactive: -4.15% |
| CC1c2nc3ccccc3n2C(CC(=O)NC2CC2)C(=O)N1Cc1ccccc1 (stereo not given) | inactive: 2.41% |
| CSc1nc(N)nc2c1ncn2CC(=O)NCCNc1ccc([N+](=O)[O-])cn1 | inactive: 0.41% |
| CCOP(=O)(Nc1ccc(C)cn1)OCC | inactive: -0.83% |
| CCN1C(=O)CC(N2CCC(Nc3ccc(F)cc3)CC2)C1=O (stereo not given) | inactive: 0.05% |
| CC(c1ccccc1)N1CCn2c(nc3cc(NC(=O)NC4CCCCC4)ccc32)C1 (stereo not given) | inactive: 1.46% |
| CC(C)NC(=O)CSc1nc2ccccc2n1CC(=O)N1CCc2ccccc21 | inactive: -0.55% |
| CN(C)C1(c2nnnn2CCOC(=O)Nc2ccc(Cl)cc2)CCCCC1 | inactive: 9.89% |
| CC(C)C[C@H](NC(=O)N1CCn2c1nc1ccccc12)C(=O)N[C@@H](C(=O)O)c1ccccc1 | inactive: 3.1% |
